One test relates to PC3 (AR negative) cells. Description: Cell viability / proliferation assay (Prestoblue), PC3. Format: cell-based. As to conditions: Homo sapiens. As for the experimental part: (§1) After 3 days of treatment, cell density was measured using the Prestoblue™ assay (Thermo Fisher Scientific™).
(§2) LNCaP, PC3 and MR49F human PCa cells were serum-starved in RPMI 1640 media (Invitrogen™) supplemented with 5% charcoal-stripped serum (CSS) (RPMI 1640 medium with 5% CSS) for 5 days prior to transfection.

By UniProt entry, the sequences of proteins in these tests, tags left out. Residues count along the entry.
UniProt P15207, 651-882 limits assumed: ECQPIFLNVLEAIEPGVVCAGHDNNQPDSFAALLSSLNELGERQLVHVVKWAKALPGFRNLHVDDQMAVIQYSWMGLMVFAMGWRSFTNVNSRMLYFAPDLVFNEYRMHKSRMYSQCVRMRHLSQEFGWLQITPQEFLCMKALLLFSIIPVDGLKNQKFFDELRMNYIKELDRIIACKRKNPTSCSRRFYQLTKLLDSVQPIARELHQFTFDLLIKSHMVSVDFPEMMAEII

Test [1] deals with androgen binding site (ABS) of recombinant wild type LBD (Rattus norvegicus, UniProt P15207).
The next test has as its system LNCaP cells. Nature of the test: Cell viability / proliferation assay (Prestoblue), LNCaP. Format: cell-based. As to conditions: Homo sapiens, read-out: IC50 cell proliferation / growth. Here is the method: as §1, §2

We go through one compound from patent US20240150313A1, “TRI-SUBSTITUTED INDOLE BINDING FUNCTION 3 (BF3) COMPOUNDS AND METHODS FOR THEIR USE” (The University of British Columbia, priority 2021, published 2024).

Consider `CC(C)NC(=O)c1cccc2nc(-c3c[nH]c4c(F)c(F)c(F)cc34)ccc12` [Compound 13789, N-isopropyl-2-(5,6,7-trifluoro-1H-indol-3-yl)quinoline-5-carboxamide], for which the IC50 worked out at 380 nM in the test on PC3 (AR negative) cells and 320 nM with LNCaP cells. Moreover, the “% Disp. @ 10 UM (DHT displacement from the ABS site)” value in test [1] is 11 ± 3.1%.
